# Screening data deposited in PubChem by National Center for Advancing Translational Sciences (NCATS).
# An excerpt weighted towards active compounds, which were near 16% of everything screened.
# TDP1 inh: blocks human tyrosyl-DNA phosphodiesterase 1. Q9NUW8. recombinant TDP1, AlphaScreen DNA substrate cleavage. Potency, µM (highest dose often 130 µM), for inactives: at the highest dose activity change, negative = inhibition, usual class: inhibitors. 350,000 tested, 0.28% active; also: potency is read from the fitted curve at half-maximal effect; % is scaled to controls: 0 for no effect and ±100 for the full control effect; nearly all actives have a fitted effect of over 40% in size
#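 Recombinant E. coli-expressed Tdp1 (1 nM) preincubated with compound 15 min at RT, then 5'-biotin/3'-phosphotyrosine-FITC DNA substrate (15 nM) added for 5 min. AlphaScreen beads (10 ug/ml) added, 10 min RT; tyrosine-FITC cleavage read as signal loss.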
# uPA surface inh: blocks generation of uPA at the cell surface; cell surface uPA generation assay, qHTS; Potency, µM (top dose mostly 38.3 µM), for the others: at the top dose activity change, negative = inhibition, hits mostly inhibitors; 330,000 tested, 0.31% active; active = well fitted inhibition curve with a large enough effect; inconclusive = small, poorly fitted or top-dose-only effect; inactive = no such curve, though single readings can be large or run the other way; tested in mouse RAW 264.7 cells; also: potency is read from the fitted curve at half-maximal effect; % is scaled to controls: 0 for no effect and ±100 for the full control effect; nearly all actives have a fitted effect of over 55% in size
# TDP1 cell CPT: DT40-hTDP1 cell growth loss with CPT | Potency, µM (titrated, usually from 46.2 µM), for the others: at the top dose activity change, negative = growth inhibition, most hits filed as inhibitors | 420,000 tested, 12% active | chicken DT40 Tdp1-/-;hTDP1 cells + 20 nM CPT, ATP luminescence, 48 h | AID 686979; also: potency is read from the fitted curve at half-maximal effect; % is scaled to controls: 0 for no effect and ±100 for the full control effect; nearly all actives have a fitted effect of over 55% in size
#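 Cell growth measured by CellTiter-Glo luminescence after a minimum 48 h, 37 C compound exposure with 20 nM CPT in Tdp1-knockout DT40 cells stably expressing hTDP1, seeded 400/well; qHTS titration format.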
# miR-21 reporter: miR-21 reporter, rising signal | HeLa miR-21 FLuc reporter, luciferase, 48 h | Potency, µM (highest dose often 38.3 µM), for inactives: at the top dose reporter change, positive = more light | 340,000 tested, under 10 active | AID 2288; active = well fitted rising curve with a large enough effect; inconclusive = small, poorly fitted or top-dose-only effect; inactive = no such curve, though single readings can be large or run the other way;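 further: % of control where 0% means no effect; miR-21 action dims this reporter so a rising signal means less miR-21 action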
#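 HeLa cells endogenously expressing miR-21, stably carrying CMV-driven firefly luciferase with a downstream miR-21 binding site, 2000 cells/well. Titrations up to approximately 40 uM, 48 hours; luciferase luminescence read.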
# TDP1 cell noCPT: qHTS for Inhibitors of human tyrosyl-DNA phosphodiesterase 1 (TDP1): qHTS in cells in absence of CPT. DT40 Tdp1-/- hTDP1 cells, no CPT, ATP luminescence, 48 h. Potency, µM (doses to about 46.2 µM), without a hit: at the top dose activity change, negative = growth inhibition, usual class: inhibitors. 420,000 tested, 15% active. AID 686978, 2013; also: potency is read from the fitted curve at half-maximal effect; % is scaled to controls: 0 for no effect and ±100 for the full control effect; nearly all actives have a fitted effect of over 55% in size
#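 Chicken DT40 Tdp1-/- cells complemented with human TDP1, screened without camptothecin (DMSO vehicle only), 400 cells/well. Compounds pin-transferred, cells incubated at 37 °C for at least 48 hr. Growth read as ATP-dependent luminescence (CellTiter-Glo, 30 min at RT).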
# Starred values were filed as active, the others as inactive; ? = inconclusive; · = no result given; [ ] = another dose, or the depositor's remark. Unless noted, calls follow the shape of the dose curve; as a rule, active = well fitted curve in the direction sought with a large enough effect; inconclusive = small, poorly fitted or top-dose-only effect, or another doubt; inactive = no such curve, though single readings can be large; an effect the other way counts as inactive or inconclusive.
[1] COc1ccccc1-c1cc(NCc2cnc(C)cn2)ncn1
[2] COCc1cc(=O)n2[nH]cc(-c3ccsc3)c2n1
[3] CC1CCN(CCCOc2ccc(Br)cc2Cl)CC1
[4] Cc1ccc(OCCCCN2CCC(C)CC2)c(Br)c1
[5] Cc1ccc(OCCCCCCN2CCNCC2)c(Br)c1
[6] CC(=O)c1c(C)[nH]c(C(=O)OCC(=O)NCC(C)C)c1C
[7] Nc1nc(NCc2ccccc2)c2[nH]cnc2n1
[8] CCC(=O)N1c2nc(C(C)C)nn2C2(CCCCC2)[C@@H]2CCCC[C@@H]21

Screen / compound no.	1	2	3	4	5	6	7	8
TDP1 inh	·	·	-7%	3%	·	2%	3%	1%
uPA surface inh	·	2%	6%	1%	-3%	-5%	·	·
TDP1 cell CPT	14%	-4%	-12%	23µM*	?	0%	-9%	8.2µM*
miR-21 reporter	·	0%	-17%	-10%	·	4%	·	0%
TDP1 cell noCPT	6%	?	-26%	?	21µM*	?	1%	4.1µM*

[9] CCC(=O)N1c2nc(-c3ccco3)nn2C2(CCCCC2)[C@@H]2CCCC[C@@H]21
[10] COc1ccccc1C(=O)N1c2ncnn2C2(CCCCC2)[C@@H]2CCCC[C@@H]21
[11] CC(C)C(=O)N1c2ncnn2C2(CCCCC2)[C@@H]2CCCC[C@@H]21
[12] CC1=C(C(=O)Nc2ccc(C)cc2)C(c2cccs2)NC(=S)N1 (configuration not stated)
[13] O=C1Nc2ccc(I)cc2/C1=C/c1cc(Br)c(O)c(Br)c1
[14] O=C1Nc2ccc(I)cc2C1=Cc1cc(Br)c(O)c(Br)c1
[15] CCn1nc(C)c(/C=N/NC(=S)Nc2ccc(Cl)cc2Cl)c1C
[16] CCn1nc(C)c(/C=N/NC(=O)Cn2nccc2C)c1C

Screen / compound no.	9	10	11	12	13	14	15	16
TDP1 inh	-1%	-4%	-4%	4%	17%[56.1 µM]	·	5%	3%
uPA surface inh	·	·	·	4%	·	·	-2%	-9%
TDP1 cell CPT	?	-12%	16µM*	5%	13µM*	10µM*	8.2µM*	-16%
miR-21 reporter	-6%	29%	17%	-31%	·	·	-29%	-46%
TDP1 cell noCPT	?	-18%	10µM*	15%	?	11µM*	6.5µM*	-1%

[17] Cc1nn(C)cc1/C=N/NC(=S)Nc1ccc(Cl)cc1Cl
[18] Cc1nn(C)cc1/C=N/NC(=O)c1ccc2c(c1)OCO2
[19] CN(C)CCNC(=O)Cc1ccc(NC(=O)N2CCCCc3ccccc32)cc1
[20] COc1ccc(C)cc1NC(=O)N1CCCc2ccccc21
[21] Cc1cccc(CNC(=O)Cc2ccc(NC(=O)N3CCCCc4ccccc43)cc2)c1
[22] Cc1ccccc1CNC(=O)Cc1ccc(NC(=O)N2CCCCc3ccccc32)cc1
[23] CCNC(=O)Cc1ccc(NC(=O)N2CCCCc3ccccc32)cc1
[24] CN(C)c1ccc(CNC(=O)Cc2ccc(NC(=O)N3CCCCc4ccccc43)cc2)cc1

Screen / compound no.	17	18	19	20	21	22	23	24
TDP1 inh	-3%	0%	5%	·	-1%	8%	8%	10%
uPA surface inh	3%	-2%	·	-7%	·	·	·	·
TDP1 cell CPT	0.52µM*	-2%	-9%	?	?	?	-14%	?
miR-21 reporter	-30%	-13%	2%	-14%	-1%	8%	1%	-4%
TDP1 cell noCPT	?	-9%	-9%	23µM*	16µM*	18µM*	-11%	21µM*

# Compound profiles (already shown). Order of values: TDP1 inh	uPA surface inh	TDP1 cell CPT	miR-21 reporter	TDP1 cell noCPT
# Cc1nn(C)cc1/C=N/NC(=O)c1ccc2c(c1)OCO2 reads 0%	-2%	-2%	-13%	-9%
# Cc1nn(C)cc1/C=N/NC(=S)Nc1ccc(Cl)cc1Cl reads -3%	3%	0.52µM*	-30%	?
# COc1ccc(C)cc1NC(=O)N1CCCc2ccccc21 reads ·	-7%	?	-14%	23µM*

# Further records follow.
[25] CCOC(=O)c1c(C)[nH]c(C)c1S(=O)(=O)N1CCC(C(=O)NCc2ccc(OC)cc2)CC1
[26] CC(=O)n1cc(N(C(=O)CCl)c2ccc([N+](=O)[O-])cc2)c2ccccc21
[27] CC(=O)n1cc(N(C(=O)CCl)c2ccccc2)c2ccccc21
[28] CC(=O)O/C(=C\c1cn(C(C)=O)c2ccccc12)C(=O)O
[29] O=C(NC1CCN(CC(=O)N(c2ccccc2)c2ccccc2)CC1)c1ccc([N+](=O)[O-])cc1
[30] CN1CCC(OC(c2ccccc2)c2ccccc2)CC1
[31] CN1CCC(Oc2ccccc2Sc2ccccc2)CC1
[32] Nc1cc(=O)[nH]n1C1CCN(c2ccccc2)CC1

Screen / compound no.	25	26	27	28	29	30	31	32
TDP1 inh	4%	5%	·	-3%	2%	-6%[56.1 µM]	-5%	6%
uPA surface inh	·	-12%	-16%	0%	·	-1%	-6%	2%
TDP1 cell CPT	-6%	2.3µM*	0.65µM*	-6%	?	-9%	?	-4%
miR-21 reporter	-1%	?	?	-2%	0%	-2%	9%	1%
TDP1 cell noCPT	-11%	2.6µM*	0.58µM*	22%	?	-22%	16µM*	-19%
